# AlphaSeq binding of Ab-91 heavy chain variants to a spike HR2 peptide

The measurements come from Engelhart et al. 2022 (doi:10.1038/s41597-022-01779-4) through the FLAb antibody collection.

Target: peptide PDVDLGDISGINAS, taken from heptad repeat 2 (HR2) of SARS-CoV-2 spike.

The variants keep the light chain, the linker and the frameworks of Ab-91 (scFv order VL, a 15-residue (Gly4Ser)3 linker, VH).
VL: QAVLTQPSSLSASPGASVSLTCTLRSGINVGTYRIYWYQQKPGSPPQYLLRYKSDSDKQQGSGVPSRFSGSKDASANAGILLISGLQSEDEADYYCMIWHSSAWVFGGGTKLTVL
VH: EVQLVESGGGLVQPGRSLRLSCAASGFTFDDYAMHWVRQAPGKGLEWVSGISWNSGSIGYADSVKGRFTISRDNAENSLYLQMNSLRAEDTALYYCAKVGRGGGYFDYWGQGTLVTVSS

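The starting antibody came from a phage panning campaign against this peptide. In library AAYL51, one, two or three CDR residues were substituted; doubles and triples were drawn at random. Affinity was read by AlphaSeq, a pooled yeast mating assay with surface-displayed partners. After mating in shaken culture at 30 °C for 16 h, diploids were selected and their barcode pairs sequenced. Each replicate has its own calibration line, from reference interactions of the BCL2 family. Each pool was mated in three replicate cultures.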

Positions count from residue 1 of the parent VH; Y32E puts E in place of Y. The read-out is the apparent dissociation constant on a log10 scale (nM): the lower, the stronger. "ND" marks a missing value. The strain was present, yet no cells mated with the target were sequenced in that replicate, which points to weak or no binding. As a blank, each scFv also met three strains without target: over library AAYL51, 21% of these pairings were detected, typically at 4.54 and seldom below 3.26. The control count says in how many pairings with the empty strains this scFv gave a signal, with their mean in brackets.

| changes | replicates, log10 nM | signal with controls |
|---|---|---|
| Y32E+V99M+F106E | 5.28 / 4.53 / 5.38 | 3 of 9 (4.31) |
| S57A+D62I | 3.30 / ND / ND | 0 of 9 |
| A33V+K65L+Y108N | ND / 5.72 / ND | 0 of 9 |
| G26Q+D30I+G100E | ND / ND / ND | 2 of 9 (4.70) |
| G26K+M34Y+S57F | ND / ND / ND | 1 of 9 (2.82) |
| G50S+A61F+V99S | ND / 4.90 / 5.72 | 9 of 9 (4.90) |
| F27L+D31Y+W53K | ND / 5.73 / ND | 1 of 9 (4.59) |
| I51S+N54R+S63D | 5.10 / 5.54 / 5.31 | 3 of 9 (4.64) |
| F29A+R101W+F106K | 4.36 / ND / 4.22 | 0 of 9 |
| Y32R+S52C | 3.09 / ND / ND | 0 of 9 |
| G56K+I58M+A61H | ND / 3.72 / ND | 0 of 9 |
| M34E+G56S+Y108M | ND / ND / ND | 0 of 9 |
| A33H+I58S+G100T | ND / ND / ND | 1 of 9 (3.70) |
| T28K+A61I+V99I | 1.20 / 0.97 / 0.58 | 0 of 9 |
| S57K+K65P | ND / ND / ND | 1 of 9 (3.76) |
| F29V+A33N+S57W | ND / ND / 4.40 | 1 of 9 (4.55) |
| G50N+Y60Q+G102T | ND / ND / ND | 0 of 9 |
| Y32M+S52D+D62W | ND / ND / ND | 0 of 9 |
| F29P+W53S+S55I | 4.66 / 4.08 / 4.83 | 4 of 9 (4.33) |
| F29E+G59P+K65N | ND / ND / ND | 0 of 9 |
| G50N+I58M+G102R | 4.68 / ND / ND | 0 of 9 |
| G50Q+W53V+I58T | ND / ND / ND | 2 of 9 (4.82) |
| G56F+S57T+D107W | 5.81 / 6.60 / 5.53 | 4 of 9 (4.37) |
| Y32L+G104H+D107A | 6.41 / 3.79 / 5.48 | 6 of 9 (4.20) |
| T28F+D31M+G56T | ND / 5.56 / ND | 1 of 9 (3.69) |
| G26D+G104L+Y105M | 4.71 / 6.30 / 3.58 | 6 of 9 (4.27) |
| M34N+S55E+D62I | ND / ND / ND | 0 of 9 |
| Y32D+G50W+G100C | ND / 3.80 / ND | 0 of 9 |
| S57Q+Y108P | 2.41 / 2.55 / 4.44 | 3 of 9 (3.95) |
| Y32R+S57M+Y60R | ND / ND / ND | 0 of 9 |
| G26V+A33L+I58C | 5.22 / ND / ND | 3 of 9 (4.73) |
| D30I+N54G+A61S | ND / 5.80 / ND | 2 of 9 (4.00) |
| A33G+H35V+G50P | ND / ND / ND | 0 of 9 |
| D62S+G103Q+F106R | ND / ND / ND | 4 of 9 (4.02) |
| F29N+D31I+I51W | ND / ND / 3.00 | 0 of 9 |
| G26Y+A33R+Y105R | ND / ND / ND | 1 of 9 (3.14) |
| Y32L+I51A | 3.65 / ND / ND | 0 of 9 |
| D30V+Y60R+Y108K | 4.38 / ND / ND | 3 of 9 (5.39) |
| Y60W+V64W+V99A | ND / ND / ND | 1 of 9 (3.82) |
| S55R+Y108P | ND / 4.00 / ND | 0 of 9 |
| F29A+S52G+D107C | ND / ND / ND | 1 of 9 (3.75) |
| I51W+S52H+S63C | 6.05 / 6.19 / 4.51 | 4 of 9 (4.44) |
| F27K+Y60C+G102I | 4.29 / ND / ND | 3 of 9 (3.66) |
| D30K+N54V+G104K | ND / ND / ND | 3 of 9 (3.17) |
| H35F+Y60R+Y108R | 3.72 / 4.97 / ND | 3 of 9 (4.92) |
| T28E+A33K+N54T | ND / ND / ND | 0 of 9 |
| G26Q+G103N | ND / ND / ND | 2 of 9 (4.71) |
| T28P+W53L+Y108L | 2.77 / 2.18 / 2.86 | 3 of 9 (3.69) |

Extract of 4 entries:

| changes | replicates, log10 nM | signal with controls |
|---|---|---|
| S55R+Y108P | ND / 4.00 / ND | 0 of 9 |
| F29V+A33N+S57W | ND / ND / 4.40 | 1 of 9 (4.55) |
| T28P+W53L+Y108L | 2.77 / 2.18 / 2.86 | 3 of 9 (3.69) |
| G26K+M34Y+S57F | ND / ND / ND | 1 of 9 (2.82) |